Assays:
[1] = Bioavailability of oral ibuprofen formulations in vagal-suppressed (propantheline-treated, Pain Model) rats; format: in vivo, Sprague-Dawley rats; conditions: 20 mg/kg ibuprofen oral as crushed tablets
Method: (§1) The animal models are Adult male Sprague-Dawley rats with body weight of 250-300 g, and which were cared for in accordance with the principles and guidelines of the Canadian Council of Animal Care. All rats were catheterized in the right jugular vein for sample collection.
An animal model having suppressed vagal properties were produced by administering (intraperitoneal injection) to the rats two 20 mg/kg doses of propantheline (test, n=6), an anticholinergic agent with known vagal suppressive properties, the first dose at 2 hours prior to administration of an NSAID, and the second at 1 hour prior.
(§2) The tablets were crushed gently and small pieces were administered into the stomach via a plastic tube followed by 0.5 mL tap water. […] They had free access to water.

[2] = Bioavailability of oral ibuprofen crushed tablets in control rats; format: in vivo, Sprague-Dawley rats; conditions: 20 mg/kg ibuprofen oral as crushed tablets
Method: as §1, §2

CC(C)Cc1ccc(C(C)C(=O)O)cc1 (racemic) [ibuprofen, (±)-2-(4-Isobutylphenyl)propionic acid]
AUC (0-8) [1]: 81.8 μg/h/mL^−1
AUC (0-1) [2]: 48.7 μg/h/mL^−1
